Source: BindingDB's records for 1319495

Amino acid sequences for entries named in this document (tags omitted).
UniProt P41143, whole entry, looked up: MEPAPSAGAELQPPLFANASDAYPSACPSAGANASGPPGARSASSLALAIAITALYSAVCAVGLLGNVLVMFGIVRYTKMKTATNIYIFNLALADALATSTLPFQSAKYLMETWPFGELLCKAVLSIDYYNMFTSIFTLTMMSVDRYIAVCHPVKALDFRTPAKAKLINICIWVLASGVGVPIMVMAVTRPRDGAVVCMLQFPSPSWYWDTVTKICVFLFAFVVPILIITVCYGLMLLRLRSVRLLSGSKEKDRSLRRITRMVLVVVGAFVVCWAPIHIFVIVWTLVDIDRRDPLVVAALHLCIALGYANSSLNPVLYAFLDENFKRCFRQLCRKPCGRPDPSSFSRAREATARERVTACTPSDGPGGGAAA

Molecular target: Delta-type opioid receptor (Homo sapiens, UniProt P41143)
Assay: ChEBML_146435
Excerpt: Binding affinity against opioid receptor delta from guinea pig brain membranes using [3H]DADLE as radioligand

SMILES | Ki [µM]
CN(C(=O)Cc1ccc(Cl)c(Cl)c1)[C@H]1CCC2(C[C@@H]1N1CCCC1)OCCO2 | 1.64
C=C1C[C@]2(CC[C@H](N3CCCC3)[C@@H](N(C)C(=O)Cc3ccc(Cl)c(Cl)c3)C2)OC1=O | 9.51
CN(C(=O)Cc1ccc(Cl)c(Cl)c1)[C@H]1CC2(CC[C@@H]1N1CCCC1)OCCO2 | 17.5
CN(C(=O)Cc1ccc(Cl)c(Cl)c1)[C@H]1CC(=O)CC[C@@H]1N1CCCC1 | > 100
CN(C(=O)Cc1ccc(Cl)c(Cl)c1)[C@@H]1CCCC[C@H]1N1CCCC1 | > 10
CN(C(=O)Cc1ccc(Cl)c(Cl)c1)[C@H]1CC[C@@]2(CCCO2)C[C@@H]1N1CCCC1 | 9.4
C=C1C[C@@]2(CC[C@H](N3CCCC3)[C@@H](N(C)C(=O)Cc3ccc(Cl)c(Cl)c3)C2)OC1=O | 12.3
